Target: 5HT2C receptors (Homo sapiens, UniProt P28335)
Experiment: Radioreceptor saturation and competition binding, [3H]-mesulergine labeled 5-HT2C receptor membranes from transfected CHO-K1 cells
Conditions: saturation binding

The chains behind the UniProt entries cited, without tags or fusion partners. Residues count along the entry.
UniProt P28335, 33-458: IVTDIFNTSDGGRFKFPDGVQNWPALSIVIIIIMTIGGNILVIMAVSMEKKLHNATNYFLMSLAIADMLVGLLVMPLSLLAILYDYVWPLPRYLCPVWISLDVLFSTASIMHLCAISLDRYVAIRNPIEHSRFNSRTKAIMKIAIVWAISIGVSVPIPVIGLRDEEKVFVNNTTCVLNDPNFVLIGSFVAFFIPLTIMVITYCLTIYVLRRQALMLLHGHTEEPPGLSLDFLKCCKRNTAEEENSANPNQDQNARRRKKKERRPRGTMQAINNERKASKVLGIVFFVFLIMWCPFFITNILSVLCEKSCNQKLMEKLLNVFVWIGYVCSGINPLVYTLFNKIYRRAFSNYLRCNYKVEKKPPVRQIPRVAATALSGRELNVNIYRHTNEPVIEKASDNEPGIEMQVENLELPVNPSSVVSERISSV

[^3H]-mesulergine
Kd (read-out: KD at 5HT2C receptors): 0.88 ± 0.03 nM | Bmax of 5HT2C receptors labeled: 8.37±0.15 pmol/mg prot

From patent US9862674B2, “Therapeutic compounds and methods of use” (University of Florida Research Foundation, Inc., priority 2007, dated 2018)
